Consider seven compounds from PMC10214524, “A Systematic Approach to the Discovery of Protein–Protein Interaction Stabilizers” (ACS Central Science, 2023).

Protein sequences, listed by entry. Tags and fused reporters are not part of them. Residues count along the entry.
UniProt P31947, 1-231 limits assumed: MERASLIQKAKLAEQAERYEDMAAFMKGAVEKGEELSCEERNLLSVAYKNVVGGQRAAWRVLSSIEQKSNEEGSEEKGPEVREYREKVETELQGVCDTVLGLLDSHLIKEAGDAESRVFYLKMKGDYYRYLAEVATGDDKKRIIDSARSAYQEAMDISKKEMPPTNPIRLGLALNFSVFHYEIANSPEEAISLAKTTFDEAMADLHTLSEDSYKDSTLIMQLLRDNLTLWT

One may read the EC50 as the midpoint of the concentration-response curve. A low value points to an effect from little substance.

The target in assay [1] is T1, 14-3-3σ/FOXO1 phosphopeptide complex (Homo sapiens, UniProt P31947). The assay can be described thus: Fluorescence anisotropy dose response (FADR), FOXO1 peptide. Conditions: for EC50: 50 μM BME, FOXO1 peptide. Background: In fluorescence polarisation assays a small probe gives low polarisation when free and higher when bound to something large.
Assay [2] concerns the target T1, 14-3-3σ/FOXO1 phosphopeptide complex. Put plainly: Mass spectrometry dose response (MSDR), FOXO1 peptide. The conditions noted are these: for DR50: 250 μM BME, FOXO1 peptide present.
The target of assay [3] is T2, 14-3-3σ/ERα phosphopeptide complex (Homo sapiens, UniProt P31947). The assay can be described thus: Fluorescence anisotropy dose response (FADR), ERα peptide.
The target in assay [4] is T3, 14-3-3σ/C-RAF phosphopeptide complex (Homo sapiens, UniProt P31947). The assay can be described thus: Fluorescence anisotropy dose response (FADR), C-RAF peptide. The conditions noted are these: for EC50: 50 μM BME, C-RAF peptide.
Assay [5] addresses T1, 14-3-3σ/FOXO1 phosphopeptide complex. Put plainly: 14-3-3σ protein titration (fluorescence anisotropy) with compound, FOXO1 peptide. Conditions: 1 mM compound; for Kd: read-out: KD_app, protein titration, 50 μM BME, fluorescein-labeled FOXO1.
Assay [6] addresses 14-3-3σ/USP8 phosphopeptide complex (Homo sapiens, UniProt P31947). Put plainly: Fluorescence anisotropy dose response (FADR), USP8 peptide.
Assay [7] deals with 14-3-3σ/SOS1 phosphopeptide complex (Homo sapiens, UniProt P31947). The assay can be described thus: Fluorescence anisotropy dose response (FADR), SOS1 peptide.
Assay [8] concerns the target T1, 14-3-3σ/FOXO1 phosphopeptide complex. Put plainly: Primary disulfide tethering screen (intact-protein LC/MS), FOXO1 peptide. Conditions: 200 µM fragment, 100 nM 14-3-3σ, 750 nM FOXO1-pp, 250 μM BME, 3 h.
For assay [9], the target named is T2, 14-3-3σ/ERα phosphopeptide complex. Put plainly: Mass spectrometry dose response (MSDR), ERα peptide. The conditions noted are these: 250 μM BME, ERα peptide present.
For assay [10] the target is unchanged. Put plainly: Primary disulfide tethering screen (intact-protein LC/MS), ERα peptide. The conditions noted are these: 200 µM fragment, 100 nM 14-3-3σ, 2 µM ERα-pp, 250 μM BME, 3 h.
In assay [11] the target is T3, 14-3-3σ/C-RAF phosphopeptide complex. The assay can be described thus: Primary disulfide tethering screen (intact-protein LC/MS), C-RAF peptide. Conditions: 200 µM fragment, 100 nM 14-3-3σ, 18 µM CRAF-pp, 250 μM BME, 3 h.
Assay [12] shares this target. Put plainly: Mass spectrometry dose response (MSDR), C-RAF peptide. Conditions: for DR50: 250 μM BME, C-RAF peptide present.
For assay [13] the target is unchanged. The assay can be described thus: 14-3-3σ protein titration (fluorescence anisotropy) with compound, C-RAF peptide. The conditions noted are these: 1 mM compound; for fold stab.: KD_DMSO / KD_app, C-RAF peptide.

Where “and” joins values, the source holds several entries; their conditions need not be identical. Equal values may be shown once.

`CN(C)CCSSCCNC(=O)C1CCCN(C(=O)c2cc(Cl)cc(Cl)c2N)C1` (stereo not drawn): the EC50 in assay [1] was found to be 0.85 µM. In [2], the “fold better DR50 in the presence of FOXO1 phosphopeptide than apo 14-3-3σ and all other phosphopeptide clients” value is on record as over 450 fold; the DR50 worked out at 2.2 µM. Further, the “stabilization of ERα peptide binding to 14-3-3σ over DMSO control” value in [3] is reported as “No increase stabilization”. Besides, the “stabilization of C-RAF peptide binding to 14-3-3σ over DMSO control” value in [4] is reported as “No increase stabilization”. Further, the fold stab. in assay [5] (KD_DMSO / KD_app, FOXO1 peptide) is reported as 4 fold. Also, the Kd in assay [5] was 0.0106 µM. For the same compound, the “stabilization of USP8 peptide binding to 14-3-3σ over DMSO control” value in assay [6] is recorded as “No increase stabilization”. The “stabilization of SOS1 peptide binding to 14-3-3σ over DMSO control” value in assay [7] was “No increase stabilization”. For the same compound, the “% Tethering” value in assay [8] stood at 68.7%.

Consider `CN(C)CCSSCCNC(=O)C1CCN(C(=O)c2cc(Cl)c(O)c(Cl)c2)CC1`, for which the half-maximal effective concentration (EC50) in assay [1] came to 2.41 µM. This compound also displayed a DR50 in assay [2] of 4.78 µM. Besides, the Kd in [5] was 0.069 µM. The “% Tethering” value in assay [8] came out at 66.6%.

As to `Cc1cc(C)c2ccc(C(=O)NCCSSCCN(C)C)nc2c1O`, the DR50 in assay [9] was 1900 µM. Also, the EC50 in [3] (50 μM BME, ERα peptide) is over 2000 µM. For the same compound, the “% Tethering” value came to 40.5% in assay [10] and 35.4% in [8].

`CN(C)CCSSCCNC(=O)C1CCN(C(=O)Cc2ccc(F)cc2)CC1`: the DR50 is over 2000 µM in assay [9] and 5.45 µM in assay [12]. The results for the “% Tethering” value in assay [11] and in assay [10] were 63.7% and 37.1%, respectively. Further, the EC50 in [4] was 0.58 µM.

For the compound `CN(C)CCSSCCNC(=O)C1CCCN(C(=O)C(C)(C)Oc2ccc3ccccc3c2)C1` (stereo not drawn), the “% Tethering” value in assay [11] is 51.1%. The compound further registered an EC50 in assay [4] of over 2000 µM. The same compound returned a DR50 in assay [12] of 5.82 µM.

As for `CN(C)CCSSCCNC(=O)C1CCCN(C(=O)c2cccc(Oc3ccccc3)c2)C1` (stereo not drawn), the fold stab. in assay [13] was 430 fold and 426 fold; in assay [13] (listed as 918039 (6)), 426 fold. In addition, the Kd in assay [13] (read-out: KD_app, protein titration, 50 μM BME, fluorescein-labeled C-RAF) turned out to be 0.1 µM. Further, in assay [1], the “stabilization of FOXO1 peptide binding to 14-3-3σ over DMSO control” value is “No increased stabilization”. Further, the “stabilization of ERα peptide binding to 14-3-3σ over DMSO control” value in assay [3] is recorded as “No increased stabilization”. In [11], the “% Tethering” value turned out to be 48.3%. In addition, the 50% effective concentration (EC50) in assay [4] is 1.33 µM. For the same compound, the “fold lower DR50 in the presence of C-RAF peptide compared to apo 14-3-3σ” value in [12] is reported as 230 fold. In assay [12], this compound showed a DR50 of 8.78 µM. The “stabilization of USP8 peptide binding to 14-3-3σ over DMSO control” value in assay [6] is “No increased stabilization”. Further, in assay [7], the “stabilization of SOS1 peptide binding to 14-3-3σ over DMSO control” value was “No increased stabilization”.

As for `CN(C)CCSSCCNC(=O)C1CCN(C(=O)c2ccc3[nH]nnc3c2)CC1`, the Kd in [5] was 0.117 µM. Also, the “% Tethering” value in assay [8] was determined as 83.6%.
